Laboratory results published in PMC4139204, “Insight into the Architecture of the NuRD Complex” (The Journal of Biological Chemistry, 2014).

How the values were obtained:
Format in all cases: cell-based, D. melanogaster (Dmel-2 cells)
Nurf55 WT [1] = test: GFP affinity purification with wild-type Nurf55 bait, mass spectrometry; settings: anti-GFP nanobody beads, Dmel-2 cells, triplicate, lowest number of unique peptides listed
Description: (§1) Full-length Nurf55 (also known as p55 and CAF1) is the D. melanogaster homolog of RbAp46/p48. It was PCR-amplified and cloned into the pDONR221 vector via the BP (recombination and insertion of the att B sequence into the att P recombination site) reaction using standard Gateway Technology (Invitrogen) protocols. Five residues in this plasmid were mutated (L35Y, E361Q, D362N, E364Q, D365N) to create pDONR-Nurf55mut using the QuikChange Lightning Site-directed Mutagenesis kit (Agilent Technologies). The resulting wild-type and mutant clones were verified by sequencing. Primer sequences for the constructs are available on request. The Nurf55 genes were then transferred into destination vectors for the inducible expression of protein A- or GFP-tagged fusion proteins by the LR (insertion of sequences containing att L sites into destination att R sites) reaction according to the manufacturer's instructions. […]
(§2) We also identified Simjang and CG18292 as possible Drosophila homologs of the mammalian GATAD2A/2B (p66α/p66β) and CDK2AP (DOC1 ([46])) proteins, respectively. […] However, once again the numbers of NuRD complex peptides detected with the Nurf55 mutant were reduced greatly (see Table 2), confirming that disruption of the RbAp48-MTA1 interface we identified abolishes the association of RbAp48 with the NuRD complex.

Nurf55 WT [2] = test: Protein A affinity purification with wild-type Nurf55 bait, mass spectrometry
Description: (§3) Full-length Nurf55 (also known as p55 and CAF1) is the D. melanogaster homolog of RbAp46/p48. It was PCR-amplified and cloned into the pDONR221 vector via the BP (recombination and insertion of the att B sequence into the att P recombination site) reaction using standard Gateway Technology (Invitrogen) protocols. Five residues in this plasmid were mutated (L35Y, E361Q, D362N, E364Q, D365N) to create pDONR-Nurf55mut using the QuikChange Lightning Site-directed Mutagenesis kit (Agilent Technologies). The resulting wild-type and mutant clones were verified by sequencing. Primer sequences for the constructs are available on request. The Nurf55 genes were then transferred into destination vectors for the inducible expression of protein A- or GFP-tagged fusion proteins by the LR (insertion of sequences containing att L sites into destination att R sites) reaction according to the manufacturer's instructions.
(§4) D. melanogaster Dmel-2 cell lines stably expressing either tagged wild-type or mutant Nurf55 (containing the L35Y, E361Q, D362N, E364Q, and D365N mutations) were established. Affinity purification of protein A- and GFP-tagged bait and interacting proteins followed by mass spectrometry identification was carried out as previously reported ([39][–][41]). […]

Nurf55 MUT [3] = test: GFP affinity purification with mutant Nurf55 bait, mass spectrometry; settings: anti-GFP nanobody beads, Dmel-2 cells, triplicate, lowest number of unique peptides listed, mutant E361Q, D362N, E364Q, D365N, L35Y
Description: as §1, §2

Nurf55 MUT [4] = test: Protein A affinity purification with mutant Nurf55 bait, mass spectrometry
Description: as §3, §4

## dMi-2: known subunit of the D. melanogaster NuRD complex, Mi-2 (dCHD)
Nurf55 WT [1]
  Number of peptides identified, Nurf55 WT: 49
Nurf55 WT [2]; IgG beads, Dmel-2 cells
  Number of peptides identified, Nurf55 WT: 6
Nurf55 WT [2]; wild-type Nurf55
  interaction with Nurf55: pulled down by Nurf55
Nurf55 MUT [3]
  Number of peptides identified, Nurf55 MUT: 14
Nurf55 MUT [4]; IgG beads, Dmel-2 cells, mutant E361Q, D362N, E364Q, D365N, L35Y
  Number of peptides identified, Nurf55 MUT: 0
Nurf55 MUT [4]; Nurf55mut
  interaction with Nurf55mut: not observed
